# Measurements published in patent US20140349852A1, “METABOLIC CONTROL OF SEED GERMINATION” (Oregon State University, priority 2010, published 2014).
# Assays:
# AGE:NCED6 seeds = experiment: Germination test of imbibed AGE:NCED6 seeds; format: in vivo, Arabidopsis thaliana; details: 10 μM fluridone with Intrepid®2F
# Procedure: Briefly, for the induction of AGE:NCED6 plants at ˜10 rosette stages, diluted (×10,000), Intrepid®2F (Dow AgroSciences) solution which contained 62 μM MOF as an active ingredient was applied directly to the soil in pots containing Arabidopsis seedlings by drenching. Seedling were harvested two days after induction and frozen at −80° C. before RNA extraction. For the induction experiments in imbibed seeds, seeds were placed in 9 cm plastic petri dishes on two layers of filter paper (No. 2, Whatman Inc) moistened with 3.5 mL water or Intrepid®2F (×10,000) and incubated at 4° C. for 3 days and at 22° C. for 29 h (gene expression analysis) or 5 days (germination tests). For germination recovery, 10 μM fluridone was included with Intrepid®2F.
# [1] = system: AGE:NCED6 transgenic Camelina seeds; experiment: Germination test of Camelina AGE:NCED6 seeds; format: in vivo, Camelina sativa; details: MOF and fluridone
# Procedure: For the induction experiment in imbibed seeds, seeds were placed in 9 cm plastic petri dishes on two layers of filter paper (No. 2, Whatman Inc.) moistened with 4 mL water or (122.6 μM or 2×10,000) MOF or 1 mM ABA and incubated at 4° C. for overnight and at 22° C. for 72 h (germination tests and gene expression analysis). For germination recovery, 10 M fluridone was included.
# To determine whether there was an effect of the AGE: NCED6 expression vector on the ability of transgenic seeds to undergo germination, wild-type and homozygous seeds from transgenic plant lines, 16-12, 17-17, and 13-12, were imbibed for three days in the presence or absence of MOF. […] Control seeds of non-transgenic plants were shown the same in the presence or absence of MOF. Germination of Camelina seeds is observed initially as ruptured testa followed by emergence of the […] when the radicle emerges.
substance,measurement,setting,value
fluridone,herbicidal effect on seedlings from induced AGE:NCED6 seeds,AGE:NCED6 seeds,etiolated
same,herbicidal effect on seedlings from induced AGE:NCED6 Camelina seeds,[1],etiolated
